System: cerebral blood flow
Experiment: Improving cerebral blood flow
Type: in vivo, rabbit
Description: The "duration (T1/2)" is the time in minutes required for the increase in cerebral blood flow to reduce by one half.

COc1ccc(Cc2nccc3cc(OC)c(OC)cc23)cc1OC [Papaverine, papaverine]
Increase in cerebral blood flow (Vp), ratio to papaverine 1 mg/kg: 1.0
Duration (T 1/2) (1 mg/kg): 2.4 min
